Measurements taken from BindingDB's records for doi:10.1016/S0960-894X(97)00090-5 (1997).

Test: The concentration of compound required to prevent 50 percent of cells from adhering to MAdCAM-1

IC50: 298 µM
SMILES: CC(=O)N[C@@H](CC(C)C)C(=O)N[C@@H](CC(=O)O)C(=O)N[C@H](C(=O)N[C@@H](CO)C(=O)N[C@@H](CC(C)C)C(N)=O)[C@@H](C)O [3-{1-[1-(1-carbamoyl-3-methylbutylcarbamoyl)-2-hydroxyethylcarbamoyl]-2-hydroxypropylcarbamoyl}-3-(3-methyl-1-methylcarboxamidobutylcarboxamido)propanoic acid]
